Laboratory results: patent US20110313672A1, “CELLULAR ANTIOXIDANT ACTIVITY (CAA) ASSAY” (CORNELL UNIVERSITY, priority 2007, published 2011)

Tested on: HepG2 cells
Test: Cytotoxicity toward HepG2 cells (methylene blue staining)
Procedure: Briefly, HepG2 cells are seeded at 4×10^4/well on a 96-well plate in 100 μL growth medium and incubated for 24 h at 37° C. The medium is removed and the cells are washed with PBS. Treatments of fruit extracts or antioxidant compounds in 100 μL treatment medium (Williams' Medium E supplemented with 2 mM L-glutamine and 10 mM Hepes) are applied to the cells and the plates are incubated at 37° C. for 24 h. The treatment medium is removed and the cells are washed with PBS. A volume of 50 μL/well methylene blue staining solution (98% HBSS, 0.67% glutaraldehyde, 0.6% methylene blue) is applied to each well and the plate is incubated at 37° C. for 1 h.
Excess dye is removed by immersing the plate in fresh deionized water until the water appears clear. […] The absorbance is read at 570 nm with blank subtraction using, for example a MRX II DYNEX spectrophotometer (DYNEX Inc., Chantilly, Va.). Concentrations of pure compounds or fruit extracts that decrease the absorbance by more than 10% when compared to the control are considered to be cytotoxic.
Cytotoxicity was measured using the method of Oliver et al. (31) with modifications by our laboratory (32). […] The absorbance was read at 570 nm with blank subtraction using the MRX II DYNEX spectrophotometer (DYNEX Inc., Chantilly, Va.). […]
The median cytotoxic concentration (CC50) was calculated for each fruit. […]

Substance: (+)-catechin
- Cytotoxicity (cytotoxic concentration) (Example 1, dose at which the cell number is reduced by more than 10% after 24 h treatment): >500 µM
- CC50 (read-out: cytotoxicity CC50, Example 3, median cytotoxic concentration, 24 h): > 1000 µM
